Test results published in EP4840453A1, “CANCER TREATMENT AGENT CONTAINING CLK INHIBITOR AS ACTIVE INGREDIENT” (dated 2026).

Tests used:
HL-60 = test: Cell proliferation assay (ATPlite 1Step), single agents and combination with Compound A, curve-shift and CI; 72 h culture, 120 h for EPZ-6438, JQ1, MLN-4924, MLN-7243, MPI-0479605, NMS-P715
NCI-H661 = test: as above
MV-4-11 cells = test: Model with subcutaneous transplantation of MV-4-11 cells (tumor volume T/C, body weight), two-agent combinations, Example 3; conditions: G5, 25 mg/kg IP QD Q2D
OVCAR-8 cells = test: Model with subcutaneous transplantation of OVCAR-8 cells (tumor volume T/C, body weight), Example 5; conditions: G5, 50 mg/kg IP QD QW
[1] = blending ratio (Compound A : combined compound) 1:1, Fa 75
[2] = NCI-H661, blending ratio (Compound A : combined compound) 1:4, Fa 75
[3] = NCI-H661, blending ratio (Compound A : combined compound) 4:1, Fa 75
[4] = blending ratio (Compound A : combined compound) 4:1, Fa 75
[5] = blending ratio (Compound A : combined compound) 1:4, Fa 50
[6] = NCI-H661, blending ratio (Compound A : combined compound) 1:1, Fa 75

`CC[C@]1(O)C[C@H]2CN(CCc3c([nH]c4ccccc34)[C@@](C(=O)OC)(c3cc4c(cc3OC)N(C=O)[C@H]3[C@@](O)(C(=O)OC)[C@H](OC(C)=O)[C@]5(CC)C=CCN6CC[C@]43[C@@H]65)C2)C1` showed a CI (HL-60; [1]) of 0.75, a CI (NCI-H661; NCI-H661, blending ratio (Compound A : combined compound) 1:4, Fa 50) of 0.89 and a CI (NCI-H661; [2]) of 0.25. The CI (NCI-H661; [3]) was 0.56.

Compound `O=C1c2c(O)ccc(O)c2C(=O)c2c(NCCNCCO)ccc(NCCNCCO)c21` has a CI (HL-60; [4]) of 0.93, a CI (HL-60; blending ratio (Compound A : combined compound) 4:1, Fa 90) of 1.04 and a CI (NCI-H661; Compound A : combined compound 1:1, Fa 50, 72 h culture) of 0.79. For the same compound, the CI (NCI-H661; Compound A : combined compound 1:1, Fa 75, 72 h culture) was 0.69, the CI (NCI-H661; Compound A : combined compound 1:4, Fa 50, 72 h culture) was 0.41 and the CI (NCI-H661; Compound A : combined compound 4:1, Fa 50, 72 h culture) was 0.79. It also gave a CI (NCI-H661; Compound A : combined compound 4:1, Fa 75, 72 h culture) of 0.54.

`Cc1cc(Nc2cc(N3CCN(C)CC3)nc(Sc3ccc(NC(=O)C4CC4)cc3)n2)[nH]n1` gave a CI (HL-60; [5]) of 0.71, a CI (HL-60; blending ratio (Compound A : combined compound) 1:4, Fa 75) of 0.78 and a CI (NCI-H661; [6]) of 0.69. For the same compound, the CI (NCI-H661; [2]) was 0.80 and the CI (NCI-H661; [3]) was 0.63.

`N[C@@H](Cc1ccc(N(CCCl)CCCl)cc1)C(=O)O` showed a CI (HL-60; Compound A + combined compound at fixed concentration 3.2 µM, Fa 90) of 0.67 and a CI (NCI-H661; NCI-H661, Compound A + combined compound at fixed concentration 3.2 µM, Fa 75) of 0.77.

In the case of `Nc1ccn([C@@H]2O[C@H](CO)[C@@H](O)[C@@H]2O)c(=O)n1`, the “Average change in tumor volume (mm^3) (Day 15 - Day 1)” value (MV-4-11 cells) is reported as 247.5 mm^3, the “%BWL (Daily maximum)” value (MV-4-11 cells; BALB/cA Jcl-nu/nu mice, day in parentheses) is reported as 0.0(1) % and the “T/C(%)” value (MV-4-11 cells; Day 15) is reported as 42.2%. The “Number of animals removed” value (MV-4-11 cells; N 5) was 0 and the “Average tumor volume (mm^3) day 15” value (MV-4-11 cells; day 15) was 385.8 mm^3.

With carboplatin the “Average change in tumor volume (mm^3) (Day 22 - Day0)” value (OVCAR-8 cells) was 108.6 mm^3, the “%BWL (Daily maximum)” value (OVCAR-8 cells; BALB/c nude mice, day in parentheses) was 0.0(0) % and the “T/C(%)” value (OVCAR-8 cells; Day 22) was 51.1%. The “Number of animals removed” value (OVCAR-8 cells; N 6) was 0 and the “Average tumor volume (mm^3) day22” value (OVCAR-8 cells; day 22) was 267.0 mm^3.

In the case of `CC[C@]1(O)C[C@@H]2CN(CCc3c([nH]c4ccccc34)[C@@](C(=O)OC)(c3cc4c(cc3OC)N(C)[C@H]3[C@@](O)(C(=O)OC)[C@H](OC(C)=O)[C@]5(CC)C=CCN6CC[C@]43[C@@H]65)C2)C1`, the CI (HL-60; blending ratio (Compound A : combined compound) 1:1, Fa 50) is reported as 1.00, the CI (HL-60; [1]) is reported as 0.95 and the CI (HL-60; [5]) is reported as 0.95. For the same compound, the CI (HL-60; blending ratio (Compound A : combined compound) 4:1, Fa 50) was 1.03, the CI (HL-60; [4]) was 1.01 and the CI (NCI-H661; NCI-H661, blending ratio (Compound A : combined compound) 1:1, Fa 50) was 1.01. It also gave a CI (NCI-H661; [6]) of 0.54, a CI (NCI-H661; NCI-H661, blending ratio (Compound A : combined compound) 4:1, Fa 50) of 0.90 and a CI (NCI-H661; [3]) of 0.56.
